# From patent US20050090480A1, “Use of selected amino acid-zinc complexes as anti-malarials” (Council of Scientific & Industrial Research, priority 2003, published 2005)
# System: RBCs
# Assay: Effect on host cell (RBCs) in parasite cultures
substance,measurement,value
Zinc complex of L-proline [PIZ2],effect on the host cell,No effect
